For the assay, the target named is Human recombinant ETA receptor (Homo sapiens, UniProt P25101). Nature of the assay: biochemical.

Sequences of proteins named here, by UniProt entry; tags and fusion partners are left off. Residues count along the entry.
UniProt P25101, 21-427: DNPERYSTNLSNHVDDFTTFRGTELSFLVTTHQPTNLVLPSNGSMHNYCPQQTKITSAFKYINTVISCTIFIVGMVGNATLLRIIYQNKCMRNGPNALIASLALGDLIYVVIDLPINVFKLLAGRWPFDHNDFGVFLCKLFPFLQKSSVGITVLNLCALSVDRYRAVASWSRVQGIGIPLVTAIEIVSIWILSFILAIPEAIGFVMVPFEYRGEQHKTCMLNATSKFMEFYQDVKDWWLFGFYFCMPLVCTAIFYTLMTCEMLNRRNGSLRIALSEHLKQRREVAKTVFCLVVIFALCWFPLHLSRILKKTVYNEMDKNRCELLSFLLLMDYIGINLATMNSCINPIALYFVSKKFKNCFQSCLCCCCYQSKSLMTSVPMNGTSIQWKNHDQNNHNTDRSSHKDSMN

pIC50: −log10 of the molar value.

Turning to `COc1nc(C)cnc1NS(=O)(=O)c1cccnc1-c1ccc(-c2nnco2)cc1` [Compound (I), N-(3-methoxy-5-methylpyrazin-2-yl)-2-(4-[1,3,4-oxadiazol-2-yl]phenyl)pyridine-3-sulphonamide], the pIC50 is 8.27.

The values are drawn from US7820679B2, “N-(-3-methoxy-5-methylpyrazin-2-yl)-2-(4-′1,3,4-oxadiazol-2-yl-phenyl)pyridine-3 sulphonamide as an anticancer agent” (AstraZeneca AB, priority 2002, dated 2010).
